From patent publication US20090253669A1, “Substituted Sulfonamide Compounds” (GRUENENTHAL GmbH, priority 2008, published 2009)

Protein sequences, listed by entry. Tags and fused reporters are not part of them.
UniProt P35372, whole entry, looked up: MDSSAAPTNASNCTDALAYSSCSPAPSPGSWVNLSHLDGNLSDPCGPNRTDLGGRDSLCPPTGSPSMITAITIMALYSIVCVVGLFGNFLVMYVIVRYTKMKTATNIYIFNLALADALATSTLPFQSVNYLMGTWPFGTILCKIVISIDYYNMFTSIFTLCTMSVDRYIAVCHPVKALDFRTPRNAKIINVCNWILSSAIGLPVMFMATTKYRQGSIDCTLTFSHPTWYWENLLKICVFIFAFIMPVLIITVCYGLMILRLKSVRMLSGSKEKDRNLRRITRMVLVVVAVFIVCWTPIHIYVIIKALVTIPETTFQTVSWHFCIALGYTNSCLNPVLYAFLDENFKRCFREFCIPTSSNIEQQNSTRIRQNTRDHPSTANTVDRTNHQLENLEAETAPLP

The compounds below were run against human μ opiate receptor (Homo sapiens, UniProt P35372) (assay: [3H]-naloxone displacement, SPA, membranes of CHO-K1 cells). Conditions: 1 μM test substance; inhibition of specific binding of 1 nmol/l [3H]-naloxone.

| Structure (SMILES) | μ opioid receptor [1 μM] % inhibition [%] |
| --- | --- |
| CN1CCN(C2(Cc3ccccc3)CCC(CN(C)C(=O)COCC3CCCN3S(=O)(=O)c3c(Cl)cc(Cl)cc3Cl)CC2)CC1 (centres unmarked) [Compound 168, N-((4-benzyl-4-(4-methylpiperazin-1-yl)cyclohexyl)methyl)-N-methyl-2-((1-(2,4,6-trichlorophenylsulfonyl)pyrrolidin-2-yl)methoxy)acetamide] | 71 |
| COc1cc(C)c(S(=O)(=O)N2CCCC2COCC(=O)NCC2CCC(Cc3ccccc3)(N3CCOCC3)CC2)c(C)c1 (centres unmarked) [Compound 169, N-((4-benzyl-4-morpholinocyclohexyl)methyl)-2-((1-(4-methoxy-2,6-dimethylphenylsulfonyl)pyrrolidin-2-yl)methoxy)acetamide] | 24 |
| COc1cc(C)c(S(=O)(=O)N(C)CCOCC(=O)NC2CCC(Cc3ccccc3)(N3CCCC3)CC2)c(C)c1 (centres unmarked) [Compound 170, N-(4-benzyl-4-(pyrrolidin-1-yl)cyclohexyl)-2-(2-(4-methoxy-N,2,6-trimethylphenylsulfonamido)ethoxy)acetamide] | 29 |
| COc1cc(C)c(S(=O)(=O)N(C)CCOCC(=O)NC2CCC(Cc3ccccc3)(N3CCOCC3)CC2)c(C)c1 (centres unmarked) [Compound 171, N-(4-benzyl-4-morpholinocyclohexyl)-2-(2-(4-methoxy-N,2,6-trimethylphenylsulfonamido)ethoxy)acetamide] | 29 |
| CN1CCN(C2(CCc3ccccc3)CCC(CN(C)C(=O)COCC3CCCN3S(=O)(=O)c3c(Cl)cc(Cl)cc3Cl)CC2)CC1 (centres unmarked) [Compound 172, N-methyl-N-((4-(4-methylpiperazin-1-yl)-4-phenethylcyclohexyl)methyl)-2-((1-(2,4,6-trichlorophenylsulfonyl)pyrrolidin-2-yl)methoxy)acetamide] | 35 |
| COc1cc(C)c(S(=O)(=O)N2CCC(OCC(=O)NCC3CCC(c4ccccc4)(N4CCOCC4)CC3)C2)c(C)c1 (centres unmarked) [Compound 173, 2-(1-(4-methoxy-2,6-dimethylphenylsulfonyl)pyrrolidin-3-yloxy)-N-((4-morpholino-4-phenylcyclohexyl)methyl)acetamide] | 26 |
| COc1cc(C)c(S(=O)(=O)N2CCC(OCC(=O)N(C)CC3CCC(Cc4ccccc4)(N4CCN(C)CC4)CC3)C2)c(C)c1 (centres unmarked) [Compound 174, N-((4-benzyl-4-(4-methylpiperazin-1-yl)cyclohexyl)methyl)-2-(1-(4-methoxy-2,6-dimethylphenylsulfonyl)pyrrolidin-3-yloxy)-N-methylacetamide] | 10 |
| CN1CCN(C2(Cc3ccccc3)CCC(CN(C)C(=O)COC3CCCN(S(=O)(=O)c4c(Cl)cc(Cl)cc4Cl)C3)CC2)CC1 (centres unmarked) [Compound 175, N-((4-benzyl-4-(4-methylpiperazin-1-yl)cyclohexyl)methyl)-N-methyl-2-(1-(2,4,6-trichlorophenylsulfonyl)piperidin-3-yloxy)acetamide] | 58 |
| COc1cc(C)c(S(=O)(=O)N2CCCC(OCC(=O)NC3CCC(c4ccccc4)(N4CCCC4)CC3)C2)c(C)c1 (centres unmarked) [Compound 176, 2-(1-(4-methoxy-2,6-dimethylphenylsulfonyl)piperidin-3-yloxy)-N-(4-phenyl-4-(pyrrolidin-1-yl)cyclohexyl)acetamide] | 88 |
| COc1cc(C)c(S(=O)(=O)N2CCC(OCC(=O)N(C)CC3CCC(CCc4ccccc4)(N4CCN(C)CC4)CC3)C2)c(C)c1 (centres unmarked) [Compound 177, 2-(1-(4-methoxy-2,6-dimethylphenylsulfonyl)pyrrolidin-3-yloxy)-N-methyl-N-((4-(4-methylpiperazin-1-yl)-4-phenethylcyclohexyl)methyl)acetamide] | 29 |
| O=C(COC1CCN(S(=O)(=O)c2c(Cl)cc(Cl)cc2Cl)C1)NC1CCC(c2ccccc2)(N2CCCC2)CC1 (centres unmarked) [Compound 178, N-(4-phenyl-4-(pyrrolidin-1-yl)cyclohexyl)-2-(1-(2,4,6-trichlorophenylsulfonyl)pyrrolidin-3-yloxy)acetamide] | 92 |
| CN(CCOCC(=O)NC1CCC(c2ccccc2)(N2CCCC2)CC1)S(=O)(=O)c1ccc(Cl)cc1Cl (centres unmarked) [Compound 179, 2-(2-(2,4-dichloro-N-methylphenylsulfonamido)ethoxy)-N-(4-phenyl-4-(pyrrolidin-1-yl)cyclohexyl)acetamide] | 94 |
| COc1cc(C)c(S(=O)(=O)N2CCCC(COCC(=O)NC3CCC(Cc4ccccc4)(N4CCCC4)CC3)C2)c(C)c1 (centres unmarked) [Compound 180, N-(4-benzyl-4-(pyrrolidin-1-yl)cyclohexyl)-2-((1-(4-methoxy-2,6-dimethylphenylsulfonyl)piperidin-3-yl)methoxy)acetamide] | 48 |
| COc1cc(C)c(S(=O)(=O)N2CCCC(OCC(=O)NC3CCC(Cc4ccccc4)(N4CCCC4)CC3)C2)c(C)c1 (centres unmarked) [Compound 181, N-(4-benzyl-4-(pyrrolidin-1-yl)cyclohexyl)-2-(1-(4-methoxy-2,6-dimethylphenylsulfonyl)piperidin-3-yloxy)acetamide] | 46 |
| COc1cc(C)c(S(=O)(=O)N2CCCC(COCC(=O)N(C)CC3CCC(CCc4ccccc4)(N4CCN(C)CC4)CC3)C2)c(C)c1 (centres unmarked) [Compound 182, 2-((1-(4-methoxy-2,6-dimethylphenylsulfonyl)piperidin-3-yl)methoxy)-N-methyl-N-((4-(4-methylpiperazin-1-yl)-4-phenethylcyclohexyl)methyl)acetamide] | 7 |
| COc1cc(C)c(S(=O)(=O)N(C)CCOCC(=O)N(C)CC2CCC(Cc3ccccc3)(N3CCN(C)CC3)CC2)c(C)c1 (centres unmarked) [Compound 183, N-((4-benzyl-4-(4-methylpiperazin-1-yl)cyclohexyl)methyl)-2-(2-(4-methoxy-N,2,6-trimethylphenylsulfonamido)ethoxy)-N-methylacetamide] | 5 |
| COc1cc(C)c(S(=O)(=O)N2CCCC(OCC(=O)N(C)CC3CCC(Cc4ccccc4)(N4CCN(C)CC4)CC3)C2)c(C)c1 (centres unmarked) [Compound 184, N-((4-benzyl-4-(4-methylpiperazin-1-yl)cyclohexyl)methyl)-2-(1-(4-methoxy-2,6-dimethylphenylsulfonyl)piperidin-3-yloxy)-N-methylacetamide] | 26 |
| COc1cc(C)c(S(=O)(=O)N(C)CCOCC(=O)NCC2CCC(c3ccccc3)(N3CCOCC3)CC2)c(C)c1 (centres unmarked) [Compound 185, 2-(2-(4-methoxy-N,2,6-trimethylphenylsulfonamido)ethoxy)-N-((4-morpholino-4-phenylcyclohexyl)methyl)acetamide] | 15 |
| CN1CCN(C2(Cc3ccccc3)CCC(CN(C)C(=O)COCCN(C)S(=O)(=O)c3c(Cl)cc(Cl)cc3Cl)CC2)CC1 (centres unmarked) [Compound 186, N-((4-benzyl-4-(4-methylpiperazin-1-yl)cyclohexyl)methyl)-N-methyl-2-(2-(2,4,6-trichloro-N-methylphenylsulfonamido)ethoxy)acetamide] | 9 |
| COc1cc(C)c(S(=O)(=O)N2CCCC(COCC(=O)NC3CCC(c4ccccc4)(N4CCCC4)CC3)C2)c(C)c1 (centres unmarked) [Compound 187, 2-((1-(4-methoxy-2,6-dimethylphenylsulfonyl)piperidin-3-yl)methoxy)-N-(4-phenyl-4-(pyrrolidin-1-yl)cyclohexyl)acetamide] | 84 |
